The values below come from patent publication US20140335050A1, “METHODS, COMPOSITIONS, AND KITS FOR THE TREATMENT OF CANCER” (The General Hospital Corporation, priority 2011, published 2014).

Assay [1] relates to U-118 MG glioma cell line. The assay can be described thus: Antibody staining and flow cytometry (intracellular gp100; surface MHC Class I/II). It counts as cell-based, human. Conditions: 3 days, IFN-beta 5000 Units/ml, 17-AEP 1.0, PU-H71 0.3, CCT018159 10.0 μg/ml. How it is done:
Cells were fixed with 1% formaldehyde, permeabilized with 0.1% saponin, stained with monoclonal antibodies to melanocyte antigens. Antibodies were obtained with specificity for: MART-1 from Vector Labs (Burlingame, Calif.); gp100 HMB45 from DakoCytomation (Carpinteria, Calif.) and then visualized with goat anti-mouse FITC-conjugated secondary antibody from Invitrogen (Fredrick, Md.). The level of EGFP was determined by flow cytometry of unfixed cells that were washed and resuspended in 1×PBS.
Cells were plated at a density of 1×10^5 in 1 ml of medium in a 24-well plate and cultured for varying times as indicated in results. Typically, 3 days of culture in the presence of Hsp90 inhibitors was optimal for the functional studies performed. After incubation, cells were collected by trypsinization and then evaluated by flow cytometry.
Intracellular staining and flow cytometric analyses of cytoplasmic Melan-A/MART-1, and gp100 expression were performed as described previously. […] The level of EGFP was determined by flow cytometry of unfixed cells washed and resuspended in 1×PBS. […]
For surface staining of HLA Class I and II antigens, cells were harvested using CellStripper™ from Mediatech (Manassas, Va.). […] Stained cells were washed twice with cold PBS and then stained with a goat anti-mouse FITC secondary antibody to allow for quantitative analysis by flow cytometry. […]
(A flow cytometer gives signals particle by particle.)

Assay [2] relates to HeLa cervical carcinoma cells. The assay can be described thus: Surface antibody staining and flow cytometry (MHC Class I/II). It counts as cell-based, human. Conditions: single agent for 3 days, no IFN-β pre-treatment, IFN-β 5000 Units/ml, PU-H71 0.3. Here is the method:
Intracellular staining and flow cytometric analyses of cytoplasmic Melan-A/MART-1, and gp100 expression were performed as described previously. Cells were fixed with 1% formaldehyde, permeabilized with 0.1% saponin, stained with monoclonal antibodies to melanocyte antigens. Antibodies were obtained with specificity for: Melan-A/MART-1 from Vector Labs (Burlingame, Calif.); gp100/HMB45 from DakoCytomation (Carpinteria, Calif.) and then visualized with goat anti-mouse FITC-conjugated secondary antibody from Invitrogen (Frederick, Md.). The level of EGFP was determined by flow cytometry of unfixed cells washed and resuspended in 1×PBS. Surface staining of MHC Class I was carried out using the antibody W6/32 on cells harvested with Cell Stripper from MediaTech Inc. (Manassas, Va.) and carried out on ice.
Cell were seeded at 1×10^6 cells in a T25 flask with 10 ml of media for the 4 day IFN-beta pre-treatments. Cells were then harvested and plated in 24 well plate at 1×10^5 cells per well in 1 ml of media for 3 day treatments.
For surface staining of HLA Class I and II antigens, cells were harvested using CellStripper™ from Mediatech (Manassas, Va.). All staining steps were performed on ice. […] Stained cells were washed twice with cold PBS and then stained with a goat anti-mouse FITC secondary antibody to allow for quantitative analysis by flow cytometry. […]

For `CC(C)NCCCn1c(Sc2cc3c(cc2I)OCO3)nc2c(N)ncnc21` [PU-H71], the “Class I, geometric mean of surface staining (W6/32)” value in assay [1] is listed as 132. For the same compound, in assay [2], the “Class I MHC, geometric mean of surface staining (W6/32)” value was 165.
